MC4R antagonist = MC4R antagonists of cAMP signaling, primary screen, cell-based, TR-FRET, antagonist arm of biased-ligand search; inhibition, % at 6.5 µM; MC4R-expressing cells, MTII-stimulated cAMP, LANCE TR-FRET; AID 540295, 2011; Melanocortin receptor 4 (Homo sapiens), P32245; actives 0.48% (n = 360,000);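 active = inhibition above its plate's cutoff, the mean of tested wells on that plate plus 3 SD, cut at about 29% in these data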;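 note: 0% = Melanotan II alone and 100% = Melanotan II plus saturating MCL0020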
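Test system: U2OS cells stably expressing human melanocortin 4 receptor (MC4R); also added: Melanotan II challenge; compound: 6.5 µM single dose; timing: 30-min compound preincubation, 1-h Melanotan II challenge, 1-h detection, room temperature; signal: Eu-cAMP/anti-cAMP TR-FRET, emission 671 nm; repeats: one well per compound, no replicates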
ASAP1 inh = inhibitors of human ASAP1 ArfGAP activity, primary screen, biochemical, fluorescence polarization | Arf-GAP with SH3 domain, ANK repeat and PH domain-containing protein 1 (Homo sapiens), … | AID 624377, 2012 | inhibition, % at 16.5 µM | actives 0.19% (n = 360,000) | ASAP1-stimulated ARF1 GTP hydrolysis, GDP FP detection; in the data active = inhibition above about 25%;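 note: 0% = vehicle with enzyme and substrate and 100% = no enzyme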
NRP1-CendR mod = modulators of CendR peptide binding to NRP-1, primary screen, biochemical, fluorescence polarization, uHTS. inhibition, % at 25 µM. actives 0.85% (n = 360,000). Neuropilin-1 (Homo sapiens), O14786. FAM-RPARPAR peptide binding to NRP-1;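 active = inhibition or corrected inhibition above about 18%, plus a signal ratio from 0.5 to 1.5, limit read from the data, passing the limit was not always enough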
UUG fidelity = modulators of start codon recognition fidelity in yeast; AID 602363; activity score, % at 18.7 µM; S. cerevisiae UUG-firefly luciferase reporter, luminescence/redox ratio; 0.13% of 350,000 active;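 active = replicate mean at a twofold rise or more, about +100% in these data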;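 note: firefly luciferase made from a UUG start codon reports start codon fidelity; reporter light over untreated wells divided by growth signal over untreated wells; some hits fall short of that in this replicate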
ARFGAP1 inhibitor = inhibitors of rat ARFGAP1 GAP activity, primary screen, biochemical, fluorescence polarization, GDP tracer; Arfgap1-stimulated ARF1 GTP hydrolysis, GDP FP detection; inhibition, % at 16.5 µM; actives 0.26% (n = 360,000); AID 651572, 2012;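 active = inhibition above a per-plate limit, mean inhibition of low control wells plus 3 SD, cut at about 25% in these data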;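 note: 0% = DMSO wells with enzyme and 100% = wells lacking Arfgap1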
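system = rat Arfgap1 catalytic domain, aa 1-136 | technique = FP, GDP Alexa 633 tracer displaced from anti-GDP antibody, 620/688 nm | compound = one concentration, 16.5 µM, DMSO 1.26% | medium = HEPES-based buffer, pH 7.5 | timing = compound-enzyme preincubation 20 min, reaction 120 min, detection 60 min, 25 °C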
MC4R ag barr = MC4R agonists recruiting beta-arrestin, primary screen, cell-based, luminescence, agonist arm of biased-ligand search. actives 0.98% (n = 360,000). Melanocortin receptor 4 (Homo sapiens), P32245. activation, % at 8.9 µM. AID 540308, 2011. U2OS MC4R beta-arrestin complementation; percent of melanotan II response, DMSO zero;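 active = activation above a per-plate cutoff, the mean activation of sample wells on that plate plus 3 SD, cut at about 8% in these data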
ARFGAP1 inh conf = ARFGAP1 inhibitor hit confirmation, biochemical, fluorescence polarization, triplicate | actives 30% (n = 890) | shares compounds with ARFGAP1 inhibitor | inhibition, % at 16.5 µM | ARFGAP1-stimulated ARF1 GTP hydrolysis, GDP tracer FP;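 active = average inhibition over triplicates above the hit cutoff set in the earlier primary screen, cut at about 25% in these data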;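 note: 0% = Arfgap1 plus ARF1-GTP with DMSO and 100% = wells lacking Arfgap1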
Numbers without * were called inactive. The list is not random: actives were taken first. Their share in the collection is about 2.3%.

Protein sequences, listed by entry. Tags and fused reporters are not part of them.
Melanocortin receptor 4 (Homo sapiens), P32245, UniProt P32245, whole entry, looked up: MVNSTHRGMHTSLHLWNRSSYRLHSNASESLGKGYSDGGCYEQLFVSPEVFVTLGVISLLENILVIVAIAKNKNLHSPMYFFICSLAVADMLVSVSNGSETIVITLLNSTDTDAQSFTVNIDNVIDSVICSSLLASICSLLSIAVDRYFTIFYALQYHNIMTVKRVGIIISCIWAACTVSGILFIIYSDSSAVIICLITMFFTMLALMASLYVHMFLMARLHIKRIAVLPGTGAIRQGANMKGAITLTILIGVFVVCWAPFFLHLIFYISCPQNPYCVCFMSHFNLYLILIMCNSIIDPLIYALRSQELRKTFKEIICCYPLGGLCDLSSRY
Neuropilin-1 (Homo sapiens), O14786, UniProt O14786, whole entry, looked up: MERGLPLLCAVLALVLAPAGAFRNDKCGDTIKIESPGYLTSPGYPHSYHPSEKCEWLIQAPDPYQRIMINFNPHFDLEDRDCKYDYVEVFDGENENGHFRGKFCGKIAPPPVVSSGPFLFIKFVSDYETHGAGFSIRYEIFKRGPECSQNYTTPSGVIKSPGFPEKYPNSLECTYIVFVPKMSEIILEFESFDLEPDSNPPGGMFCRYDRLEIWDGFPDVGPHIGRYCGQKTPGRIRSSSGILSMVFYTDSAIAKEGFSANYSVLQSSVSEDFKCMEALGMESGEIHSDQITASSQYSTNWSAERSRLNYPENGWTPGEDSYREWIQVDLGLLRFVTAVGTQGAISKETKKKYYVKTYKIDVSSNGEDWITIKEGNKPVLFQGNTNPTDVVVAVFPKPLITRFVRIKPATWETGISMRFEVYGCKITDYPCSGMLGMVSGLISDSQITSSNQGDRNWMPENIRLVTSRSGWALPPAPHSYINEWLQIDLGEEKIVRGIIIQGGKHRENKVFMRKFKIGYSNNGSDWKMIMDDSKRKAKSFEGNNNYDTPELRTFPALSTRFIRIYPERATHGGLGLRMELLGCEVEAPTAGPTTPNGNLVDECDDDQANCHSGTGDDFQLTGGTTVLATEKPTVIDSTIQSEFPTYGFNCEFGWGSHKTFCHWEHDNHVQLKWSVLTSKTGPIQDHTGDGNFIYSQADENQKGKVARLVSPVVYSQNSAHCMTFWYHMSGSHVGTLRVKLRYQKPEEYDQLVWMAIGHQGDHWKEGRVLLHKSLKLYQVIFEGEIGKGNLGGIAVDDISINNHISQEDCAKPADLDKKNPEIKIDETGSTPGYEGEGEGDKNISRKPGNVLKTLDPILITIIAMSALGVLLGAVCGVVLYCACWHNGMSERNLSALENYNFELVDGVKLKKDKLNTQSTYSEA

Screening O=C(c1ccc2c3n(nc2c1)-c1ccccc1CO3)N1CCCCC1 returned MC4R antagonist 0, ASAP1 inh 2, NRP1-CendR mod 0, UUG fidelity -62, ARFGAP1 inhibitor -13 and MC4R ag barr -1.
`c1ccc2c(c1)COc1c3ncccc3nn1-2` gave MC4R antagonist 2, ASAP1 inh 2, NRP1-CendR mod 11, UUG fidelity -22, ARFGAP1 inhibitor active, MC4R ag barr 0 and ARFGAP1 inh conf -2.
Cc1ccc(CNC(=O)C(=O)NCC(c2ccco2)N2CCOCC2)cc1 (stereo unspecified) was read as MC4R antagonist 0, ASAP1 inh 9, NRP1-CendR mod -1, ARFGAP1 inhibitor -4 and MC4R ag barr 2.
Screening O=C(NCc1ccc(Cl)cc1)C(=O)NCC(c1ccco1)N1CCOCC1 (stereo unspecified) returned MC4R antagonist 8, ASAP1 inh 6, NRP1-CendR mod 4, UUG fidelity -10, ARFGAP1 inhibitor 30*, MC4R ag barr 0 and ARFGAP1 inh conf 3.
Screening CN1C(=O)c2cc(NC(=O)C3CCOCC3)ccc2OC[C@@H]2O[C@H](CC(=O)NC3CCCC3)CC[C@H]21 returned UUG fidelity 4.
Cc1ccc(OCC(O)CN2C(=O)NC(C)(C)C2=O)cc1 (stereo unspecified) was read as MC4R antagonist 1, ASAP1 inh 0, NRP1-CendR mod 6, UUG fidelity -9, ARFGAP1 inhibitor 35*, MC4R ag barr -1 and ARFGAP1 inh conf -1.
Screening CN1C(=O)c2cc(NC(=O)C3CCCC3)ccc2OC[C@@H]2O[C@H](CC(=O)O)CC[C@@H]21 returned UUG fidelity -11.
For O=C(NNC(=S)NC(=O)C12CC3CC(CC(C3)C1)C2)c1ccncc1 the results were MC4R antagonist 0, ASAP1 inh -10, NRP1-CendR mod 0, ARFGAP1 inhibitor 37*, MC4R ag barr -4 and ARFGAP1 inh conf -2.
`Cc1cccc(NC(=O)C2(c3cccs3)CCOCC2)c1` gave MC4R antagonist 4, ASAP1 inh -12, NRP1-CendR mod -1, UUG fidelity -14, ARFGAP1 inhibitor 35*, MC4R ag barr 2 and ARFGAP1 inh conf 4.
Screening COC(=O)c1ccc(N2CCN(C)CC2)c(NC(=O)COc2ccccc2Cl)c1 returned MC4R antagonist 7, ASAP1 inh 4, NRP1-CendR mod 15, UUG fidelity -1, ARFGAP1 inhibitor 27*, MC4R ag barr -2 and ARFGAP1 inh conf 2.
Screening COC(=O)c1ccc(N2CCN(C)CC2)c(NC(=O)COc2ccc(OC)cc2)c1 returned MC4R antagonist -1, ASAP1 inh 7, NRP1-CendR mod 8, UUG fidelity 2, ARFGAP1 inhibitor -7 and MC4R ag barr 2.
Screening Cc1ccc(S(=O)(=O)Nc2ccc(NC(=O)Nc3cccc(C(F)(F)F)c3)cc2)cc1 returned MC4R antagonist 14, ASAP1 inh 22, NRP1-CendR mod -3, ARFGAP1 inhibitor 30*, MC4R ag barr 9.2* and ARFGAP1 inh conf 29*.
Screening CCNC(=O)C[C@@H]1CC[C@@H](NC(=O)C2CCOCC2)[C@H](CO)O1 returned UUG fidelity -12.
For CCCCNc1nc2ccccc2n1CC(=O)N1CCc2ccccc2C1 the results were MC4R antagonist 7, ASAP1 inh 6, NRP1-CendR mod -1, UUG fidelity -2, ARFGAP1 inhibitor 47*, MC4R ag barr -1 and ARFGAP1 inh conf 4.
O=C(CSc1ccc(Cl)cc1)Nc1ccc(-c2nc3ccccc3[nH]2)cc1 was read as MC4R antagonist 14, ASAP1 inh 3, NRP1-CendR mod -1, UUG fidelity 0, ARFGAP1 inhibitor 25*, MC4R ag barr 10* and ARFGAP1 inh conf 24.
For C[C@@H]1CN([C@H](C)CO)C(=O)c2cc(NC(=O)Cn3cnnn3)ccc2O[C@H]1CN(C)C(=O)Nc1ccccc1 the results were UUG fidelity 0.
Screening O=C(N/N=C/c1sc(=O)n(Cc2ccc(Br)cc2)c1Cl)c1ccco1 returned MC4R antagonist 0, ASAP1 inh 23, NRP1-CendR mod -61, ARFGAP1 inhibitor 39*, MC4R ag barr 26* and ARFGAP1 inh conf 54*.
`COc1ccc(-n2c(SCC(=O)Nc3nccs3)nc3sc4c(c3c2=O)CCN(C)C4)cc1` gave MC4R antagonist -2, ASAP1 inh 9, NRP1-CendR mod -15, UUG fidelity 7, ARFGAP1 inhibitor 25*, MC4R ag barr 2 and ARFGAP1 inh conf 27*.
Screening COc1ccc(NC(=O)CSc2nc3sc4c(c3c(=O)n2-c2ccc(OC)cc2)CCN(C)C4)cc1 returned MC4R antagonist 3, ASAP1 inh 12, NRP1-CendR mod -18, UUG fidelity 9, ARFGAP1 inhibitor 20 and MC4R ag barr -1.
Screening CCOC(=O)N1CCN(C(=O)CCl)CC1 returned MC4R antagonist 2, ASAP1 inh 1, NRP1-CendR mod 3, ARFGAP1 inhibitor -1 and MC4R ag barr 0.

The list goes on, starting with the last 3 of the part before.
`COc1ccc(-n2c(SCC(=O)Nc3nccs3)nc3sc4c(c3c2=O)CCN(C)C4)cc1` gave MC4R antagonist -2, ASAP1 inh 9, NRP1-CendR mod -15, UUG fidelity 7, ARFGAP1 inhibitor 25*, MC4R ag barr 2 and ARFGAP1 inh conf 27*.
Screening COc1ccc(NC(=O)CSc2nc3sc4c(c3c(=O)n2-c2ccc(OC)cc2)CCN(C)C4)cc1 returned MC4R antagonist 3, ASAP1 inh 12, NRP1-CendR mod -18, UUG fidelity 9, ARFGAP1 inhibitor 20 and MC4R ag barr -1.
Screening CCOC(=O)N1CCN(C(=O)CCl)CC1 returned MC4R antagonist 2, ASAP1 inh 1, NRP1-CendR mod 3, ARFGAP1 inhibitor -1 and MC4R ag barr 0.
CC(C)(C)NC(=O)CN1CCN(C(=O)CCl)CC1 was read as MC4R antagonist 4, ASAP1 inh -1, NRP1-CendR mod -9, UUG fidelity 28, ARFGAP1 inhibitor 25*, MC4R ag barr -1 and ARFGAP1 inh conf -1.
Screening C[C@@H]1CN([C@H](C)CO)C(=O)CCCn2cc(nn2)CO[C@@H]1CN(C)S(=O)(=O)c1ccc2c(c1)OCCCO2 returned UUG fidelity 3.
Screening Cc1noc(C)c1S(=O)(=O)Nc1ccc2c(c1)C(=O)N([C@H](C)CO)C[C@@H](C)[C@@H](CN(C)CC1CCCCC1)O2 returned UUG fidelity -2.
`O=C(C[C@H]1C=C[C@@H](NC(=O)c2ccccc2)[C@H](CO)O1)NCc1ccncn1` gave UUG fidelity 5.
`COc1[nH]c2ccc(F)cc2c1C(=O)OCC1CCN(CCNS(C)(=O)=O)CC1` gave MC4R antagonist 2, ASAP1 inh -12, NRP1-CendR mod -4, UUG fidelity 13, ARFGAP1 inhibitor 28*, MC4R ag barr -1 and ARFGAP1 inh conf 2.
`COC(=O)c1cc(S(=O)(=O)NCC2CCN(Cc3cccc(F)c3)CC2)cn1C` gave MC4R antagonist 2, ASAP1 inh 2, NRP1-CendR mod 3, UUG fidelity -17, ARFGAP1 inhibitor -3 and MC4R ag barr -3.
For C[C@H](CO)N1C[C@H](C)[C@H](CN(C)Cc2ccc(C(=O)O)cc2)OCCCC[C@H](C)Oc2ccc(NS(=O)(=O)c3cccs3)cc2C1=O the results were UUG fidelity 14.

Assay outcomes deposited in PubChem BioAssay by several laboratories.
